Measured values from PubChem BioAssay AID1777 (Sanford-Burnham Center for Chemical Genomics, 2009).
The list shows a part of the results, in another mix than the full data. Results with a measured potency or affinity are listed apart. Activity calls are given as the source filed them. Cut-off read from the data, not from the text of the source: active = activation above about 50% (passing the limit was not always enough); inactive = the rest.

Sequences of proteins named here, by UniProt entry; tags and fusion partners are left off.
UniProt P41145, whole entry: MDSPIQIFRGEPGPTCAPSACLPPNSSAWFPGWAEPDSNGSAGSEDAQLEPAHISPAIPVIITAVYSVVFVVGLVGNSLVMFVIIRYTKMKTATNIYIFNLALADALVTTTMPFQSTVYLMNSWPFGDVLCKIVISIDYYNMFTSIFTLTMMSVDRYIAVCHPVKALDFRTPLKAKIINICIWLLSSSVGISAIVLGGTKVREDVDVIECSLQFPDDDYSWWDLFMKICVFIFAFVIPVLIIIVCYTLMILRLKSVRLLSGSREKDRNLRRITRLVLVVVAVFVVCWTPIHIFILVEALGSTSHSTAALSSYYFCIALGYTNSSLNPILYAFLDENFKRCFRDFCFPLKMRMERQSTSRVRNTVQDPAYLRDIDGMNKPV

Each molecule was assayed against Kappa-type opioid receptor (Homo sapiens) (UniProt P41145) (assay: kappa opioid receptor activators – cell-based, luminescence, uHTS, primary screen (AID 1777)). Conditions: KOR beta-arrestin recruitment, at 10 µM, active compounds read high.

SMILES | activation
Cc1n[nH]c(C)c1S(=O)(=O)N1CCC(C(=O)N2CCn3c2nc2ccccc23)CC1 | inactive: -12.8%
